In general, inhibition refers to the relative decrease from the control value, in per cent.

Molecules are shown by their SMILES. The entries are a selection whose mix differs from that of the whole data set. Active and inactive are the calls of the source.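 The calls were made as follows: active = inhibition above the batch mean plus 3 SD, and confirmed as a hit on visual image review (cut at about 43% in these data); inconclusive = passes the inhibition cutoff but fails visual image review; inactive = the rest.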

This assay is described as follows: E-selectin induction blockers in HUVEC – imaging, immunofluorescence, high content, primary screen (AID 1246).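 Also: 0% = TNF-stimulated DMSO wells and 100% = unstimulated control wells.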 The conditions noted are these: HUVEC TNFa-induced E-selectin immunofluorescence, at 2 µM, hits give high values.
Turning to `CN1CCN(CCOC(=O)C(O)(c2ccccc2)c2ccccc2)CC1`, the inhibition is inactive: 2.91%.
As to `COc1ccc(NC2CCN(C(=O)OC(C)(C)C)CC2)cc1`, the inhibition was inactive: -23.2%.
As to `O=C(NCC1(N2CCOCC2)CCCCC1)c1cc(=O)[nH]c2ccccc12`, the inhibition is inactive: -6.62%.
Under `N#CC1(Nc2ccccc2)CCN(CCc2ccccc2)CC1` stands inactive: 9.47%; under `CN1CCC(Nc2cccc(F)c2)CC1`, inactive: -39.6%.
`CN(C)c1cccc(C(=O)NCC2(N3CCCCC3)CCCCC2)c1`: the inhibition was inactive: -24.4%.
Under `CCOC(=O)N1CCC(Nc2ccc(OC)cc2)CC1` stands inactive: 32.9%.
Regarding `O=C(NCC1(N2CCOCC2)CCCCC1)c1cc2ccccc2o1`, the inhibition was inactive: 8.32%.
Under `CCN1CCC(Nc2cccc(F)c2)CC1` stands inactive: 14.6%; under `CCC(CO)(C(=O)OC1CN2CCC1CC2)c1ccccc1` (centres undefined), inactive: -10.9%; under `CC(C)(C)OC(=O)N1CCC(Nc2ccccc2)CC1`, inactive: -22.2%.
On to `CCOc1ncccc1C(=O)NCC1(N2CCOCC2)CCCCC1`, for which the inhibition was inactive: -24%.
As for `c1ccc(CN2CCC(Nc3ccccc3)CC2)cc1`, the figure is inactive: 0.96%.
On to `N#Cc1ccc(C(=O)NCC2(N3CCCCC3)CCCCC2)cc1`, for which the inhibition was inactive: -35.9%.
